For the data set, the system named is Obese Zucker rats. Put plainly: In vivo assessment in obese Zucker rats: clinical chemistry (AP, BUN, CRT, AST, ALT). Conditions: mean ± SE.
Regarding “Chromium Dinicotiante Glutamate [Cr(nic)2Glu]”, the “ALT (Alanine Aminotransferease)” value amounted to 105.57 u/L, the “AP (Alkaline phosphatase)” value amounted to 52.86 u/L, the “AST (Aspartate Aminotransferase)” value is on record as 176.71 u/L and the “Anion Gap” value was determined as 27.00. Besides, the “BUN (Blood Urea Nitrogen)” value is listed as 18.43 mg/dL, the “CRT (Creatinine)” value is 0.41 mg/dL and the “Total Bilirubin” value amounted to 0.10 mg/dL.
Regarding “Chromium Dinicotinate Argininate [Cr(nic)2Arg]”, the “ALT (Alanine Aminotransferease)” value is 147.33 u/L, the “AP (Alkaline phosphatase)” value is on record as 40.20 u/L, the “AST (Aspartate Aminotransferase)” value amounted to 241.50 u/L and the “Anion Gap” value amounted to 27.60. The “BUN (Blood Urea Nitrogen)” value is 20.00 mg/dL, the “CRT (Creatinine)” value is given as 0.42 mg/dL and the “Total Bilirubin” value amounted to 0.00 mg/dL.
For the substance “Chromium Dinicotinate Aspartate [Cr(nic)2Asp]”, the “ALT (Alanine Aminotransferease)” value is given as 96.00 u/L, the “AP (Alkaline phosphatase)” value amounted to 53.00 u/L, the “AST (Aspartate Aminotransferase)” value amounted to 120.33 u/L and the “Anion Gap” value was found to be 26.00. Moreover, the “BUN (Blood Urea Nitrogen)” value turned out to be 18.00 mg/dL, the “BUN/CRT Ratio” value is given as 45.83, the “CRT (Creatinine)” value turned out to be 0.42 mg/dL and the “Total Bilirubin” value is on record as 0.10 mg/dL.
Regarding “Chromium Dinicotinate Glycinate [Cr(nic)2Gly, reference compound]”, the “ALT (Alanine Aminotransferease)” value was found to be 90.83 u/L, the “AP (Alkaline phosphatase)” value was determined as 40.50 u/L, the “AST (Aspartate Aminotransferase)” value is reported as 176.71 u/L and the “Anion Gap” value is recorded as 29.43. For the same substance, the “BUN (Blood Urea Nitrogen)” value was 16.71 mg/dL, the “BUN/CRT Ratio” value turned out to be 41.07, the “CRT (Creatinine)” value is recorded as 0.40 mg/dL and the “Total Bilirubin” value turned out to be 0.10 mg/dL.
As to “Chromium Dinicotinate Phenylalanine [Cr(nic)2Phe]”, the “ALT (Alanine Aminotransferease)” value is 108.00 u/L, the “AP (Alkaline phosphatase)” value stood at 51.43 u/L, the “AST (Aspartate Aminotransferase)” value stood at 135.29 u/L and the “Anion Gap” value is 27.71. Besides, the “BUN (Blood Urea Nitrogen)” value stood at 19.71 mg/dL, the “BUN/CRT Ratio” value came out at 51.43, the “CRT (Creatinine)” value is recorded as 0.39 mg/dL and the “Total Bilirubin” value is 0.10 mg/dL.
As for “Chromium Dinicotinate Tryptophanate [Cr(nic)2Trp]”, the “ALT (Alanine Aminotransferease)” value came out at 89.29 u/L, the “AP (Alkaline phosphatase)” value is recorded as 61.43 u/L, the “AST (Aspartate Aminotransferase)” value turned out to be 149.71 u/L and the “Anion Gap” value was found to be 27.14. The “BUN (Blood Urea Nitrogen)” value is recorded as 19.57 mg/dL, the “BUN/CRT Ratio” value worked out at 48.93, the “CRT (Creatinine)” value is 0.40 mg/dL and the “Total Bilirubin” value is on record as 0.09 mg/dL.

For the origin of these results see patent publication US9700546B2, “Trivalent chromium compounds, compositions and methods of use” (INTERHEALTH NUTRACEUTICALS, INC., priority 2006, dated 2017).
